Target: Phosphatidylinositol 4,5-bisphosphate 3-kinase catalytic subunit alpha isoform (Homo sapiens, UniProt P42336)
Assay: Inhibition of PI3Kalpha (unknown origin) using PIP2/PS as substrate compound preincubated for 15 mins by luciferase-based luminescence assay

Protein sequences, listed by entry. Tags and fused reporters are not part of them.
UniProt P42336, whole entry: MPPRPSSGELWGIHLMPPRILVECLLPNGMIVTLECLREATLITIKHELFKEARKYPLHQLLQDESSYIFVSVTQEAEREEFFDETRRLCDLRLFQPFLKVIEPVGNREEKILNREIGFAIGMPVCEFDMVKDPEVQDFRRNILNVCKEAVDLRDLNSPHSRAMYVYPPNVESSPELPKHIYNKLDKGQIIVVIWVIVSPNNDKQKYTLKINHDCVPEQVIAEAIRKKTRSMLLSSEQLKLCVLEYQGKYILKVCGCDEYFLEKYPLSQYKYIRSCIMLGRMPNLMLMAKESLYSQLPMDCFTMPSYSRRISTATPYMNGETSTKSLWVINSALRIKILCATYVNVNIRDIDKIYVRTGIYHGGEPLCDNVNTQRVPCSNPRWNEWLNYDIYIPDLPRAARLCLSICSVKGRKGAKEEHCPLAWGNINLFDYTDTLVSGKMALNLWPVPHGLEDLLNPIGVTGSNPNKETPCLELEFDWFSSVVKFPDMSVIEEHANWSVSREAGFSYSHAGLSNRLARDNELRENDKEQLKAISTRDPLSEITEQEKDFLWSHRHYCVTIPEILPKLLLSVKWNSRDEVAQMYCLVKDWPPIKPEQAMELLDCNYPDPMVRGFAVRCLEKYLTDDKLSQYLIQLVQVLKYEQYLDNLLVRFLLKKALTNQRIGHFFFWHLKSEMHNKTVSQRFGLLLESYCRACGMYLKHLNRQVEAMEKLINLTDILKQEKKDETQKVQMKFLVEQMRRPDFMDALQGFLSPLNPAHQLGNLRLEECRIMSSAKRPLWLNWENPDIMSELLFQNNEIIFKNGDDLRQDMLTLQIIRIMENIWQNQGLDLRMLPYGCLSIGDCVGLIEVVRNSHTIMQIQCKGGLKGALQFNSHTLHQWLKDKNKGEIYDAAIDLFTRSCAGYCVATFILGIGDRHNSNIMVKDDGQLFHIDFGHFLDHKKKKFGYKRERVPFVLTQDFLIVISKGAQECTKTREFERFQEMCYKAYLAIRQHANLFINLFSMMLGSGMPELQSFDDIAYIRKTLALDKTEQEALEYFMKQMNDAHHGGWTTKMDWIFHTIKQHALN

Compound: COc1ccc(-c2cc3c(C)nc(N)nc3n(C3CCCC3)c2=O)cn1
- IC50: 2.8 nM
